Experimental data published in patent publication US9155706B2, “Pharmaceutical composition” (Novartis AG, priority 2010, dated 2015).

Assay: Single-dose (Day 1) pharmacokinetics of Compound tablets, first-time-in-human study
Details: 0.125 mg, single dose Day 1, oral tablets, fasting, individual values

CC(=O)Nc1cccc(-n2c(=O)n(C3CC3)c(=O)c3c(Nc4ccc(I)cc4F)n(C)c(=O)c(C)c32)c1 [Compound, N-{3-[3-cyclopropyl-5-(2-fluoro-4-iodo-phenylamino)-6,8-dimethyl-2,4,7-trioxo-3,4,6,7-tetrahydro-2H-pyrido[4,3-d]pyrimidin-1-yl]phenyl}acetamide]
Cmax (human, plasma, po, Cmax): 0.62 ng/mL | C24: 0, 0 ng/mL
